This test concerns the target Lethal factor (Bacillus anthracis) (UniProt P15917). The test can be described thus: Bacillus anthracis LF protease inhibitors, confirmation, biochemical, multiplex microsphere, cherry pick 1 (AID 602142). The note with it: multiplex microsphere protease cleavage assay, at 10 µM, stronger effect = higher value.

Our source for the inhibition values is PubChem BioAssay AID602142 (NMMLSC, 2011).

Structures are written as SMILES. The entries are a selection whose mix differs from that of the whole data set. Some of these compounds have results that are not shown, active ones among them. The source made the active and inactive calls. How the calls were made is not given here.

As a reminder, the inhibition is the change of the read-out against control, counted positive when it falls. In the case of `CN1[C@@H]2CC[C@H]1CC(OC(=O)C(O)(c1ccccc1)c1ccccc1)C2` (stereo partly specified), the inhibition is inactive: 6.1%.
